In patent US20110039815A1, “MACROCYCLIC METAL COMPLEXES FOR THEIR USE AS ANTICANCER AGENTS” (priority 2005, published 2011):

Experiments:
[1] = tested on: non-cancerous ovarian OVEPI cells; assay: Cell death / morphology of OVEPI cells in six well plates
[2] = tested on: ovarian cancer cell line NUTU-19; assay: Cell death / morphology of NUTU-19 cells in six well plates

Substance: ^Me3TacnRhCl3 [formula 8]
- effect on cell morphology and viability (photos) [1]: close cell contact, good cell attachment and viability, and a lack of deleterious cell morphology changes
- effect on cell morphology and viability (photos) [2]: deleterious morphology changes and internal vesicle formation and elongation in addition to a loss of cell colony contact
